## Binding of CDR-mutated scFvs to a peptide of the spike HR2 region

The target is the same throughout: PDVDLGDISGINAS, from the HR2 region of SARS-CoV-2 spike.

Parent scFv Ab-14: VH joined to VL by the linker GGGGSGGGGSGGGGS. Changes lie in the light chain CDRs alone.
VH: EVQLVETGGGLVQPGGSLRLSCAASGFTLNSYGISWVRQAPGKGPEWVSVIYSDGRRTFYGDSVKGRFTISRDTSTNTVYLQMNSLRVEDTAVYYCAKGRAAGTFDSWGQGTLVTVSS
VL: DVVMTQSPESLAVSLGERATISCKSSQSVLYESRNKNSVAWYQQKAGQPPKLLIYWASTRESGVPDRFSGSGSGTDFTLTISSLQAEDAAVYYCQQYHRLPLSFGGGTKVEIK

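Designed CDR sequences, proposed from the first random library and measured here. Group labels follow the data file (Ctrl: baseline library sampled from a position-specific scoring matrix, with some repeated check sequences; En: ensemble of fine-tuned language models; GP: Gaussian process model; HC: hill climbing; Gen: genetic algorithm; Gibbs: Gibbs sampling; a sequence that several methods proposed may carry one label only). In AlphaSeq, yeast of one mating type display the scFv and yeast of the other type display the target. Mating (16 h, 30 °C) was followed by selection of diploids and sequencing of their barcodes. A regression on co-assayed BCL2-family reference pairs converts the normalised counts of each replicate to an apparent Kd. Each pool was mated in six replicate cultures.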

The parent's light chain CDRs are KSSQSVLYESRNKNSVA, WASTRES, QQYHRLPLS; each variant's own CDRs replace them letter for letter.
Values are log10 of the apparent Kd in nM; lower means stronger binding.
The mean shown is taken over the replicates in which the pair was detected.
"no signal" marks a missing value. The strain was present, yet no cells mated with the target were sequenced in any replicate, which points to weak or no binding.
In the paper, a design with two or fewer of six values counts as a poor binder.
Three control strains display no target. For all light chain designs, 4% of the pairings with them gave a signal, with a median of 2.64 and one signal in twenty below 1.59, so weak values seen in few replicates may be background.
A sequence measured in both rounds can read differently, since the two assays cover different ranges.
The parent sequence was in this pool as ten entries: three were never detected, three once, and four in most replicates, with averages from 0.34 to 2.37.

CDR-L1	CDR-L2	CDR-L3	group	mean log10 Kd (nM)	seen in
KSSQKVLYEERNDNSVA	QASTREY	QQYHRLPLS	Ctrl	1.52	6/6
KVSPSVLYEDRNWNSVA	QASQRCS	QQYHRLPLS	GP_Gibbs	-0.23	6/6
KLSQVTHSEHRNKNSIA	EMVTREV	QQYDRLPLS	En_HC	1.29	6/6
KLSQSWLYESRNKNSVA	GASQRES	QQYHRLPLS	GP_Gen	-0.28	6/6
KLSQSYLYESRNKNSVA	HASTRES	QQYHRLPLS	GP_Gen	-0.09	6/6
KLLQSVNYGMRALNSVA	QMETREE	QQYDRLPLS	En_HC	0.46	6/6
KISQVFMMTGKLANSVA	NAYTRVQ	QQYHRLPLS	En_HC	0.06	6/6
KSSQSVLYESRNKNSIA	WALTREC	QQYHRLPLS	Ctrl	no signal	0/6
KSSESVLYESFNKNSVA	WASTRES	QQYHRLPLS	Ctrl	2.62	2/6
KLSGLTRLESQNKASVA	ENSTRGE	QQYFRLPLS	En_HC	-0.17	6/6
KVSQSNLGESRMKNSVA	HAHQRES	QQYHRLPLS	GP_Gibbs	0.80	6/6
RIMYEYDSSVDKYNAVA	QAHIRTQ	QHYNRLPLS	En_Gibbs	1.15	6/6
KSSQSVLYESRNKNSVA	QASTRES	PQYHRLPLS	Ctrl	no signal	0/6
ILNLTPMEHQIHMDAVA	QEAIRNA	QQYARLPLS	En_Gibbs	1.14	6/6
KVYQSWLYESRNKNSVA	NASTRES	QQYHRLPLS	GP_Gen	0.38	6/6
KIGSTLNQLMHKKNNVA	DLVMREN	QQYFRLPLS	En_Gen	0.80	5/6
MIFYGQERDIAHESSIA	NDMARVK	QQYARLPLS	En_Gibbs	2.13	6/6
MFDQQLMTENDKNNSVA	EENHLYN	QQYAQLPLI	En_Gibbs	2.18	4/6
KLMMSGLYESRNSNSVA	EASTREQ	QDYHRLPLS	GP_Gibbs	0.30	6/6
IVSQLMLWGMHAKNSIA	EAETRLN	QQYERLPLF	En_Gen	1.09	6/6
FMEMDFQENSGNHNSIA	SEEVKTR	QHYGRLPLS	En_Gibbs	no signal	0/6
KLSISVVYGSLNKNSVA	WASTREP	QQPHRLPLS	Ctrl	no signal	0/6
KVSEFMKGLMARTDSIA	DNVTRNK	QQYDRLPLS	En_Gen	2.23	6/6
KAAQSWLYESRNKNSVA	GASTRES	QQYHRLPLI	GP_HC	0.89	6/6
KLQQSQLYESRNTNSVA	QASQREQ	QQYHRLPLS	GP_Gibbs	-0.36	6/6
KISMLTRFQQNAKNNIA	EMNRREQ	QQYHRLPLS	En_HC	0.40	6/6
KYSQSVFYEGRNKNSVA	WASTRES	NQYHRKPLS	Ctrl	no signal	0/6
KLEQGFLYEERNKNSVA	SASQRES	QQYHRLPLS	GP_Gibbs	-0.43	6/6
KFSQSVLTESRNKNSVA	DASFRES	QQYHRLPLS	GP_HC	-0.04	6/6
KSSQSPLYESTNKNSVA	WAMTRES	QQYHRLPLS	Ctrl	1.79	3/6
KSSISYLYESRNTNSVA	EASTREQ	QQYHRLPLS	GP_HC	-0.14	6/6
MMSQVTGLGTRHRNNVA	QTETREP	QQYDRLPLV	En_Gen	0.74	6/6
TITQSMLMTSHHMNSVA	HASTREE	QQYHRLPLI	En_HC	0.67	6/6
KLPQSVWYESRNKNSVA	NASTRES	QQYHRLPLS	GP_Gen	-0.26	6/6
QLLMATMQGYYNRNSVA	HAETRED	QSYHRLPLS	En_HC	1.88	6/6
KSSQSVTYESRNKNSVA	HASLRES	QQKHRLPLS	Ctrl	1.86	4/6
KFMISLEYQMAEQNAIA	HAEISTV	QQYSRLPID	En_Gibbs	no signal	0/6
KFSQMANSMSVSHSAVA	EMSTRED	QQYNRLPLA	En_Gen	-0.75	1/6
KMSQSVLMEHRNKNSVA	DASTRES	QQYWRLPLS	GP_HC	0.47	6/6
KLSWSVLLESRAKNSVA	NASTRES	QQYHRLPLS	GP_Gibbs	-0.07	6/6
KLSESVLYESRNKNNVA	NASTRES	QQYHRLPLS	GP_Gen	-0.60	6/6
KSSYSVLYESRNKNSVA	WADIRSS	QQYIRLPLL	Ctrl	1.55	6/6
KSSQSVLYESRNKNSVA	WASTRFS	PDYHRLPLS	Ctrl	no signal	0/6
KVSGSQLYESRNKNSVA	EASTRES	QQYHRLPLS	GP_Gen	0.47	6/6
KLYQSHLYESRNKNSVA	NASQRES	QQYHRLPLS	GP_Gen	-0.43	6/6
QLYAVQDMTTKNSNSVA	EQSTREN	QQYHRLPLS	En_HC	0.92	6/6
TISQMLLMQTSHKNSVA	GEETRYN	QQYHHLPLS	En_HC	1.08	6/6
KLQQSVLYESRNKNSVA	HASTRLS	QQYHRLPLS	GP_Gen	0.61	6/6
QVVDEQWAEGQNISSIA	EGEVMKD	QQYNRLPLS	En_Gibbs	2.99	2/6
IISQSMAYESATHNSIA	QTETREE	QQYHHLPLI	En_HC	1.25	6/6
SLRLKELGMSYNANQVA	DSENRIK	QQYYRLPLT	En_Gibbs	-0.12	6/6
QMTHPEESWQNNQRSIA	NASASLD	QQYAQLPLM	En_Gibbs	0.95	6/6
TLSDLMYMESRNYNSVA	DLSKRGS	QQYHRLPLS	En_HC	0.06	6/6
MIEEDNAGEQKNSSNIA	SQDQKED	QQYQRLPLM	En_Gibbs	1.44	6/6
MISDLTMVGSRNKNSVA	DLSTRGS	QQYHRLPLS	En_HC	0.02	6/6
KISQEVWYESRNKNSVA	EASQRES	QQYHRLPLS	GP_Gibbs	-0.09	6/6

The closing 6 entries, repeated:

CDR-L1,CDR-L2,CDR-L3,group,mean log10 Kd (nM),seen in
SLRLKELGMSYNANQVA,DSENRIK,QQYYRLPLT,En_Gibbs,-0.12,6/6
QMTHPEESWQNNQRSIA,NASASLD,QQYAQLPLM,En_Gibbs,0.95,6/6
TLSDLMYMESRNYNSVA,DLSKRGS,QQYHRLPLS,En_HC,0.06,6/6
MIEEDNAGEQKNSSNIA,SQDQKED,QQYQRLPLM,En_Gibbs,1.44,6/6
MISDLTMVGSRNKNSVA,DLSTRGS,QQYHRLPLS,En_HC,0.02,6/6
KISQEVWYESRNKNSVA,EASQRES,QQYHRLPLS,GP_Gibbs,-0.09,6/6

Reference: Li et al. 2023, doi:10.1038/s41467-023-39022-2. File: FLAb, binding data.